Reference: ChEMBL document CHEMBL3875231, “From Dynamic Combinatorial Chemistry to in Vivo Evaluation of Reversible and Irreversible Myeloperoxidase Inhibitors” (ACS Med Chem Lett, 2017)

Target: T1, Myeloperoxidase (Homo sapiens) (UniProt P05164)
T1 sequence (whole entry): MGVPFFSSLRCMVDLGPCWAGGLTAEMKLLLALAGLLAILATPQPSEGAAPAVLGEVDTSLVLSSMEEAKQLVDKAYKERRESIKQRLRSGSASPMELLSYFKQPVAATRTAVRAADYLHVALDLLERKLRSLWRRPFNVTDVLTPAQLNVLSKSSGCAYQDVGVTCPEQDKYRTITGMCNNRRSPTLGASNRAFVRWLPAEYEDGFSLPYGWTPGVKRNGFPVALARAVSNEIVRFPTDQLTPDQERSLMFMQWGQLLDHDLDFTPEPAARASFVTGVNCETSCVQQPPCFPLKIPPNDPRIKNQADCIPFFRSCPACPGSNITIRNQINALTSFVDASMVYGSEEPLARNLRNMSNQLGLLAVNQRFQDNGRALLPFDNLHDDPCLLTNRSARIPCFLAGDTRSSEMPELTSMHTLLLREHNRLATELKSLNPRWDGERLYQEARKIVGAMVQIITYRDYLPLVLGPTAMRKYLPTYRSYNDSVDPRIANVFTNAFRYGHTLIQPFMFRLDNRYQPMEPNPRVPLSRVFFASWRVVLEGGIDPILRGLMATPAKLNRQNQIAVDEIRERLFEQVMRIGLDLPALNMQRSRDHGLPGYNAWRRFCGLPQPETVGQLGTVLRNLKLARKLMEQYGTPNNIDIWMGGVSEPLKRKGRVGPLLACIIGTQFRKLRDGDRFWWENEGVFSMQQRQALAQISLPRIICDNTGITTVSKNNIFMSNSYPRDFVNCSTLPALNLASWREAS
Test: Inhibition of human MPO
Parameters: concentration or dose not given beside the values
Details: concentration not given here

NNc1ccc([N+](=O)[O-])cc1[N+](=O)[O-]
inhibition: 61%
